Values of other authors, collected in paper PMC9585589 (2022).

Target: human CB1
Details: CB1 antagonists/inverse agonists, Table S9; ref SI (20)-(38), one per compound; cited from earlier work

Compound	Ki [nM]
CCNC1(C(N)=O)CCN(c2ncnc3c2nc(-c2ccccc2Cl)n3-c2ccc(Cl)cc2)CC1 [Otenabant]	0.7
AM-251	7.49
